Laboratory results from ChEMBL document CHEMBL4177755, “Combating Drug-Resistant Fungi with Novel Imperfectly Amphipathic Palindromic Peptides” (J Med Chem, 2018).
Calls of active or inactive are those of the source. The rule behind the calls is not given here.

System: Escherichia coli
Assay: Disruption of cytoplasmic membrane electrical potential in Escherichia coli ATCC 25922 at MBC after 800 secs by DiSC3-5 dye-based fluorescence spectrophotometric method
Format: functional, organism-based
Summary of the method: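 Cells were loaded with the membrane potential-sensitive dye DiSC3-5, and its release on peptide treatment (various concentrations, including 1× MBC/MFC) was monitored as increasing fluorescence over 800 s.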

O=C(O)c1cn(C2CC2)c2cc(N3CCNCC3)c(F)cc2c1=O [CIPROFLOXACIN]
Activity: inactive
